The values that follow come from PMC5799093, “Proceedings of Réanimation 2018, the French Intensive Care Society International Congress” (Annals of Intensive Care, 2018).

The subject of the data set is poisoned patients with cardiovascular failure. As to conditions: 246 poisoned patients.

Take `CC(C)NCC(O)c1ccc(O)c(O)c1` (centres unmarked) [isoprenaline]: the “maximal infusion rate associated with survival” value amounted to 25 mg·h. `NC[C@H](O)c1ccc(O)c(O)c1` [norepinephrine]: the “maximal infusion rate associated with survival” value is 140 mg·h.
